{
  "source": "patent US20100028387A1",
  "about": "“Biocompatible Coated Nanostructured Titanium Surfaces” (priority 2007, published 2010)",
  "origin": "cited, not measured here",
  "molecules": {"B1": {"name": "rhBMP 2: recombinant human (rh) BMP 2, bone morphogenetic protein (protein, UniProt P12643 283-396, looked up)", "Bone morphogenetic protein 2": "QAKHKQRKRLKSSCKRHPLYVDFSDVGWNDWIVAPPGYHAFYCHGECPFPLADHLNSTNHAIVQTLVNSVNSKIPKACCVPTELSAISMLYLDENEKVVLKNYQDMVVEGCGCR"}},
  "test_system": "bone induction",
  "conditions": "Bessho, et al., 1999",
  "data": [
    {"molecule": "B1", "values": [
      {"measurement": "activity relative to purified human BMP 2", "value": "one-tenth"},
      {"measurement": "amount of rhBMP 2 necessary to produce bone induction in vivo", "setting": "collagen carrier", "value": "0.7-17 μg of BMP per mg of a collagen carrier"}
    ]}
  ]
}
